Source: PubChem
Shown are actives, neighbours in structure and some others; about 2.8% of the full set was active somewhere.
PglD DTNB: PglD (C. jejuni) enzyme inhibition. AID 602405. actives 0.098% (n = 360,000). inhibition, % at 12.5 µM. purified PglD enzyme, DTNB colorimetric CoA detection; in the data active = inhibition above about 16%, passing the limit was not always enough
C2C12 statin: suppressors of simvastatin-induced myotoxicity in C2C12 myotubes. ATP luminescence, 48 h; scaled: DMSO 0, geranylgeraniol control 100. rescue of ATP level, % at 7.49 µM. actives 0.78% (n = 330,000). AID 602340;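 active = mean ATP rescue above about 67%, or every replicate alone reaching that limit, limit read from the data, passing the limit was not always enough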;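 note: myotubes were challenged with 10 µM simvastatin during compound exposure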
E-selectin induc: induces E-selectin expression in human endothelial cells. P16581. HUVEC E-selectin immunofluorescence imaging; normalized: neutral wells 0, TNF-alpha wells 100. activation, % at 7.58 µM. actives 0.37% (n = 260,000);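 active = mean E-selectin-positive cell signal at least 10% of the positive control, reached in at least 60% of replicates, without over 20% cell loss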
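Read-out basis: % PE-positive cells; Test system: HUVEC primary endothelial cells; Technique: immunofluorescence imaging; Dosing: single-point compound dose.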
esBAF inh: blocks esBAF chromatin remodeling in mouse ES cells. Bmi1-luciferase knock-in reporter, 24 h; 100% = twice the neutral-well signal. reporter increase, % at 12.5 µM. actives 2% (n = 350,000). AID 602393; in the data active = activation above about 40%;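 note: 0% = median of the plate's neutral control wells and 100% = double that signal; a rise in the Bmi1 reporter signal indicates esBAF inhibition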
UUG fidelity: modulators of yeast start codon fidelity, primary screen, whole organism, S. cerevisiae, single point, plate reader; S. cerevisiae UUG-firefly luciferase reporter, luminescence/redox ratio; activity score, % at 18.7 µM; actives 0.13% (n = 350,000);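 active means replicate mean at a twofold rise or more, about +100% in these data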;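 further: firefly luciferase made from a UUG start codon reports start codon fidelity; reporter light over untreated wells divided by growth signal over untreated wells; some hits fall short of that in this replicate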
PGC1a acetyl inh: lowers PGC1a acetylation signal in U2OS cells | actives 0.17% (n = 350,000) | AlphaScreen anti-acetyl-lysine; with virally co-expressed GCN5 acetyltransferase | inhibition, % at 15.6 µM;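 active = every replicate shows inhibition of at least 40%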;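 note: 0% = neutral control wells and 100% = positive control wells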
The depositor's hits bear a star.

`CNC[C@@H]1Oc2c(NS(C)(=O)=O)cccc2C(=O)N([C@H](C)CO)C[C@@H]1C` gave PglD DTNB 3.1, C2C12 statin 7.8, E-selectin induc -7.7, esBAF inh 3.2, UUG fidelity -10.4 and PGC1a acetyl inh -13.6.
`Cc1nc2cc(NC(=O)c3ccc(S(=O)(=O)N(C)c4ccccc4)cc3)ccc2o1` gave PglD DTNB -6.2, C2C12 statin -13.2, esBAF inh 83.4*, UUG fidelity -8.1 and PGC1a acetyl inh 18.5.
For Cc1[nH]nc(N=CC2=C(O)CC(C)(C)CC2=O)c1-c1ccccc1 the results were PglD DTNB -6.5, C2C12 statin -1.8, E-selectin induc 1.8, esBAF inh 44.7*, UUG fidelity -21.1 and PGC1a acetyl inh 1.9.
For Cc1ccc(C(=O)C(C(=O)/C=C/c2ccccc2)=C2SCCCS2)cc1 the results were PglD DTNB -2.5, C2C12 statin 112.9*, esBAF inh -4.7, UUG fidelity -10.9 and PGC1a acetyl inh 7.8.
For COc1cccc(S(=O)(=O)N[C@@H]2C=C[C@@H](CC(=O)NCc3ccncc3)O[C@H]2CO)c1 the results were PglD DTNB -4.2, C2C12 statin 1.4, E-selectin induc 0.0, esBAF inh -2.9, UUG fidelity -24.4 and PGC1a acetyl inh -47.0.
CCOC(=O)c1c(NC(=O)CC(C)C)sc(C(C)=O)c1C was read as PglD DTNB -2.2, C2C12 statin -1.8, esBAF inh 4.9, UUG fidelity 12.7 and PGC1a acetyl inh -6.1.
Screening CCOC(=O)c1sc(NC(=O)CN(CC(C)C)CC(C)C)c(C(=O)OCC)c1C returned PglD DTNB 2.8, C2C12 statin 73.9*, esBAF inh -6.2, UUG fidelity 5.1 and PGC1a acetyl inh -6.4.
COc1ccccc1CCCNC(=O)C1CCC(=O)N(Cc2ccccc2F)C1 (stereo not drawn) was read as PglD DTNB 6.4, C2C12 statin 0.3, esBAF inh 46.3*, UUG fidelity -6.7 and PGC1a acetyl inh -7.8.
`COc1ccc(CCCNC(=O)C2CCC(=O)N(Cc3ccccc3F)C2)cc1` (stereo not drawn) gave PglD DTNB -3.3, C2C12 statin -10.3, esBAF inh 10.6, UUG fidelity -3.4 and PGC1a acetyl inh -2.0.
Cc1ccc(CCNC(=O)C2CCC(=O)N(Cc3ccccc3F)C2)o1 (stereo not drawn) was read as PglD DTNB 1.5, C2C12 statin -2.7, E-selectin induc 0.7, esBAF inh 54.6*, UUG fidelity 4.3 and PGC1a acetyl inh 2.8.
Screening CO[C@H]1CN(C)C(=O)c2ccc(NC(=O)Nc3ccccc3F)cc2OC[C@H](C)N(C)C[C@H]1C returned PglD DTNB 4.4, C2C12 statin -29.9, E-selectin induc 0.4, esBAF inh -2.6, UUG fidelity 10.7 and PGC1a acetyl inh 11.5.
For CC(=O)N(C)C[C@@H]1Oc2ncc(-c3cccnc3)cc2C(=O)N([C@H](C)CO)C[C@@H]1C the results were PglD DTNB -0.2, C2C12 statin 0.8, E-selectin induc 0.2, esBAF inh 0.8, UUG fidelity -6.2 and PGC1a acetyl inh 8.5.

Pulled by compound from above, 3 records:
CCOC(=O)c1c(NC(=O)CC(C)C)sc(C(C)=O)c1C was read as PglD DTNB -2.2, C2C12 statin -1.8, esBAF inh 4.9, UUG fidelity 12.7 and PGC1a acetyl inh -6.1.
`CNC[C@@H]1Oc2c(NS(C)(=O)=O)cccc2C(=O)N([C@H](C)CO)C[C@@H]1C` gave PglD DTNB 3.1, C2C12 statin 7.8, E-selectin induc -7.7, esBAF inh 3.2, UUG fidelity -10.4 and PGC1a acetyl inh -13.6.
For CC(=O)N(C)C[C@@H]1Oc2ncc(-c3cccnc3)cc2C(=O)N([C@H](C)CO)C[C@@H]1C the results were PglD DTNB -0.2, C2C12 statin 0.8, E-selectin induc 0.2, esBAF inh 0.8, UUG fidelity -6.2 and PGC1a acetyl inh 8.5.

Next section:
Screening O=C1C/C(=C/NCc2ccccc2)C(=O)N1 returned PglD DTNB 7.3, C2C12 statin 95.2*, esBAF inh 0.3, UUG fidelity -10.0 and PGC1a acetyl inh -1.5.
CCOc1ccc(NC(=O)CCc2c(C)nn(-c3ccc(N4CCCCC4)nn3)c2C)cc1 was read as PglD DTNB 2.1, C2C12 statin 4.9, esBAF inh 52.4*, UUG fidelity -1.7 and PGC1a acetyl inh -15.1.
CCc1ccc(NC(=O)CCc2c(C)nn(-c3ccc(N4CCCCC4)nn3)c2C)cc1 was read as PglD DTNB 4.6, C2C12 statin -9.0, esBAF inh 61.7*, UUG fidelity -15.3 and PGC1a acetyl inh -9.2.
COC(=O)C1=C(C)NC(C)=C(C(=O)OC)C1C(=O)OC(C)C(=O)c1ccccc1 (stereo not drawn) was read as PglD DTNB -2.9, C2C12 statin -26.5, E-selectin induc 77.3*, esBAF inh -5.9, UUG fidelity -2.3 and PGC1a acetyl inh -2.2.
Screening COc1ccccc1NC(=O)N[C@@H]1CC[C@H](CCNS(=O)(=O)c2ccccc2)O[C@H]1CO returned C2C12 statin 24.0, E-selectin induc -0.3, esBAF inh -10.6 and PGC1a acetyl inh 2.4.
COc1ccc(NC2CCCN(C(=O)c3csc(C(C)C)n3)C2)cc1OC (stereo not drawn) was read as PglD DTNB -0.4, C2C12 statin -3.9, E-selectin induc 78.6*, esBAF inh -4.5, UUG fidelity -23.1 and PGC1a acetyl inh 2.3.
`COc1ccc(NC2CCCN(C(=O)c3csc(C(C)C)n3)C2)cc1` (stereo not drawn) gave PglD DTNB -0.8, C2C12 statin -9.7, E-selectin induc 1.5, esBAF inh -0.9, UUG fidelity -13.0 and PGC1a acetyl inh 2.1.
CCCCCC1CC(CC(=O)O)C(=O)O1 (stereo not drawn) was read as PglD DTNB 7.4, C2C12 statin 119.3*, esBAF inh -3.6, UUG fidelity -0.7 and PGC1a acetyl inh 4.5.
CCCCCC1CC(CC/C(C)=N/NC(N)=O)C(=O)O1 (stereo not drawn) was read as PGC1a acetyl inh -9.4.
`CN(C)c1ccc(/C=C/c2ccncc2)cc1` gave PglD DTNB -1.9, C2C12 statin -6.0, esBAF inh 30.2, UUG fidelity 13.3 and PGC1a acetyl inh 2.5.
`COc1ccc(/C=C/c2ccncc2)cc1` gave PglD DTNB 0.7, C2C12 statin 11.9, esBAF inh 52.6*, UUG fidelity -23.2 and PGC1a acetyl inh 3.3.
`O=C(CCOc1ccccc1)N1CCN(S(=O)(=O)c2cccs2)CC1` gave PglD DTNB 8.2, C2C12 statin 77.6*, esBAF inh 3.7, UUG fidelity -16.3 and PGC1a acetyl inh 3.8.
For O=C(COc1ccccc1)N1CCN(S(=O)(=O)c2cccs2)CC1 the results were PglD DTNB -5.4, C2C12 statin 37.9, esBAF inh -2.1, UUG fidelity -7.7 and PGC1a acetyl inh -2.8.
`COCC(=O)Nc1ccc2c(c1)C(=O)N(C)[C@H]1CC[C@@H](CC(=O)Nc3ccccc3)O[C@H]1CO2` gave PglD DTNB 1.8, C2C12 statin 0.8, E-selectin induc 0.0, esBAF inh -3.5, UUG fidelity 3.3 and PGC1a acetyl inh 1.0.
Screening C[C@@H]1CN([C@@H](C)CO)C(=O)Cc2cc(NC(=O)c3ccncc3)ccc2O[C@H]1CN(C)Cc1ccccc1 returned PglD DTNB 1.4, C2C12 statin -31.6, E-selectin induc 0.2, esBAF inh 2.7 and UUG fidelity 1.7.
For Nc1nc(-c2ccc3c(c2)OCCO3)cs1 the results were PglD DTNB 3.8, C2C12 statin 5.9, esBAF inh 50.5* and UUG fidelity -16.3.
Screening Nc1nc(-c2cc3c(cc2Cl)OCCO3)cs1 returned PglD DTNB -3.1, C2C12 statin 19.0, esBAF inh 14.7, UUG fidelity -8.2 and PGC1a acetyl inh -4.5.
